The source of these data is US10508087B2, “Crystalline forms of trisodium supramolecular complex comprising valsartan and AHU-377 and methods thereof” (CRYSTAL PHARMATECH CO., LTD., priority 2014, dated 2019).

The mark [1] stands for this setting: drug substance powder, individual determination.

“And” between values parts separate entries of the source, which are not always exact repeats. Equal values may be shown once.

On to “trisodium [3-((1S,3R)-1-biphenyl-4-ylmethyl-3-ethoxycarbonyl-1-butylcarbamoyl) propionate-(S)-3′-methyl-2′-(pentanoyl{2″-(tetrazol-5-ylate)biphenyl-4′-ylmethyl}amino) butyrate] hemipentahydrate”, for which the “Compressibility Index” value ((Tapped Density-Bulk Density)/Tapped Density*100%, individual determination) is 28% (2×) and 29% (2×) and 31%. Further, the “Compressibility Index Average” value (average of the determinations) is on record as 29%. Moreover, under setting [1], the “Bulk Density” value was 0.239 g/mL and 0.243 g/mL and 0.245 g/mL and 0.244 g/mL and 0.240 g/mL; the “Tapped Density” value is 0.331 g/mL and 0.343 g/mL and 0.346 g/mL and 0.338 g/mL and 0.347 g/mL. The Flowability entry (rating by compressibility index, USP<1174>) was “Poor”.
